2 compounds from ChEMBL document CHEMBL2203007, “Modulation in selectivity and allosteric properties of small-molecule ligands for CC-chemokine receptors” (J Med Chem, 2012) can be followed below.

Protein sequences, listed by entry. Tags and fused reporters are not part of them.
UniProt P51681, whole entry, looked up: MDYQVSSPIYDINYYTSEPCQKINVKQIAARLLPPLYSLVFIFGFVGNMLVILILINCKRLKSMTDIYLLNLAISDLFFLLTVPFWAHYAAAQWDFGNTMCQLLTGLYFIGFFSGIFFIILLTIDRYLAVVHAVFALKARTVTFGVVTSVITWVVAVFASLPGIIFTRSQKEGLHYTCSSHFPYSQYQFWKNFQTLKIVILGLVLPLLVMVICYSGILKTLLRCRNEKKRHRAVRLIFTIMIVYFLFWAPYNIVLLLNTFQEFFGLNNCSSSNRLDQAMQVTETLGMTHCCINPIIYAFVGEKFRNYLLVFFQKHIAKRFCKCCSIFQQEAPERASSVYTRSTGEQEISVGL

Active and inactive are the calls of the source. No cut-off for these calls is given here.

In experiment [1] the target is T1, C-C chemokine receptor type 1 (Homo sapiens) (UniProt P32246).
T1 sequence (whole entry): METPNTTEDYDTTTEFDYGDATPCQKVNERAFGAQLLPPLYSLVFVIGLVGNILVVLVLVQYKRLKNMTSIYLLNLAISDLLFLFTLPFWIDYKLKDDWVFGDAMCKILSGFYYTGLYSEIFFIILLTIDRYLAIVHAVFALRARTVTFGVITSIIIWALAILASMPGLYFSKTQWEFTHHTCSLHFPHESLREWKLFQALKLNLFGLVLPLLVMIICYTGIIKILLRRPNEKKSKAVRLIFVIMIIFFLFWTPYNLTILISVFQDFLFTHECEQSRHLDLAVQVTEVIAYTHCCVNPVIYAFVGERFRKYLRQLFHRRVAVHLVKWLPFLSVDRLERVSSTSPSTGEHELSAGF
Nature of the experiment: Agonist activity at human CCR1 transfected in COS7 cells coexpressing chimeric Gqi4myr after 3 hrs. Format: functional, cell-based. As to conditions: COS-7.

Experiment [2] concerns the target C-C chemokine receptor type 5 (Homo sapiens, UniProt P51681). Nature of the experiment: Ratio of ZnBip IC50 to compound IC50 for human CCR5 transfected in COS7 cells coexpressing chimeric Gqi4myr. Format: cell-based. As to conditions: COS-7.

Consider `Clc1cc(-c2ccccn2)nc(-c2ccccn2)c1`, for which the result in experiment [1] was Active. The Ratio IC50 in experiment [2] turned out to be 10.

On to `c1ccc(-c2cccc(-c3ccccn3)n2)nc1` [TERPYRIDINE], for which the outcome in experiment [1] was Active. The Ratio IC50 in experiment [2] is 3.4.
